The entries are a selection whose mix differs from that of the whole data set. Some results for these compounds are left out of this collection, so the calls shown say nothing about other tests. The source made the active and inactive calls.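 How the source made its calls: active means inhibition above the campaign mean plus 3 SD, with each screening campaign given its own cutoff (cut at about 60% in these data); inactive means the rest.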
Each compound was assayed against Nuclear receptor coactivator 1 (Homo sapiens) (UniProt Q15788) (assay: NCOA1 GAL4-fusion reporter inhibition – cell-based, luminescence, primary screen (AID 588354;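 further: 0% = DMSO treated cells and 100% = gossypol at 36 µM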)). Conditions: HEK293 GAL4-SRC1 luciferase reporter, at 3.6 µM, active compounds read high.

Sequences of proteins named here, by UniProt entry; tags and fusion partners are left off.
UniProt Q15788, whole entry: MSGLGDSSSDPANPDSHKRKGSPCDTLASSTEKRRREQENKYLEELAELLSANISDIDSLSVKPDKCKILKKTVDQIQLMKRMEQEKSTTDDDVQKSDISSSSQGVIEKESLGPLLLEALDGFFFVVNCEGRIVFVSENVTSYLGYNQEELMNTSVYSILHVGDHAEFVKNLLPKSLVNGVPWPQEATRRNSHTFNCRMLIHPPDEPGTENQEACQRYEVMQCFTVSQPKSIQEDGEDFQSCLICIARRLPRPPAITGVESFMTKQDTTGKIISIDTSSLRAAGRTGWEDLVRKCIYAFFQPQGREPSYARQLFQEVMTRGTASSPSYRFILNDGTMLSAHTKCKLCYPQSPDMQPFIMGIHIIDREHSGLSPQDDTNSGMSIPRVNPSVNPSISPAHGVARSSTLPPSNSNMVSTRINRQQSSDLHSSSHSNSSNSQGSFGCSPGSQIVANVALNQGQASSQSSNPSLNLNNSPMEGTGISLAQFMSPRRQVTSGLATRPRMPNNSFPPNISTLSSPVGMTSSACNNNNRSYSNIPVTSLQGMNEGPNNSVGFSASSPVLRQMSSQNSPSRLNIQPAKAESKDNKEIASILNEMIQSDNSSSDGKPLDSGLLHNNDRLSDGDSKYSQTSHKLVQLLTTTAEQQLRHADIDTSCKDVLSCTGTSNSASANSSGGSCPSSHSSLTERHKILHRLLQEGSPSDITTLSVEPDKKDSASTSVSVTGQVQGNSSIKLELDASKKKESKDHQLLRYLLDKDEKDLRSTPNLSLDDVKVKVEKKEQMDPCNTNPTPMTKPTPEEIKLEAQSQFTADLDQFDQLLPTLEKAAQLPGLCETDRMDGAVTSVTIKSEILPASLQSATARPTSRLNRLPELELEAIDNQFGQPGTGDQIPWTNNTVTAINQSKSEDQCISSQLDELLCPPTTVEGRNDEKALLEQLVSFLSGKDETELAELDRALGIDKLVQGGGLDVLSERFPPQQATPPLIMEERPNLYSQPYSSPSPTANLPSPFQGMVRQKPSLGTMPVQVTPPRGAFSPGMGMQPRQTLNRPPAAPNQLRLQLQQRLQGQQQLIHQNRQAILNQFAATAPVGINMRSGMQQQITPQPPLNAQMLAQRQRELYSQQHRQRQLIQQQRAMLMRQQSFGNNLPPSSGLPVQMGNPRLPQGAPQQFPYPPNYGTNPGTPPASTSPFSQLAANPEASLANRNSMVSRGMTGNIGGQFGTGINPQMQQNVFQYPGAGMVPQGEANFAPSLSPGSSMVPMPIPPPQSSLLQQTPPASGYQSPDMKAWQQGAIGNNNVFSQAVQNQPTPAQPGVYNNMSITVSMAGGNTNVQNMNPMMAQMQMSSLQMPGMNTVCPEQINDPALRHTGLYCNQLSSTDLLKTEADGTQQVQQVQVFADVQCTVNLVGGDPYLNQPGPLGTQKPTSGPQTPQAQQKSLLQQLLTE

**Q.** With O=C(NCC1(N2CCCCC2)CCCCC1)c1cc([N+](=O)[O-])ccc1Cl as the compound, how does the inhibition read?
**A.** inactive: -18.3%

**Q.** How did the inhibition turn out when CN1[C@@H]2CC[C@H]1CC(OC(=O)C(O)(c1ccccc1)c1ccccc1)C2 (stereo partly specified) was run?
**A.** inactive: -17.1%

**Q.** With COc1cc(SC)ccc1C(=O)NCC1(N(C)C)CCCCC1 as the compound, how does the inhibition read?
**A.** inactive: 4.44%

**Q.** With CCN(CC)CC(C)C(C)OC(=O)C(O)(c1ccccc1)c1ccccc1 (stereo unspecified) as the compound, how does the inhibition read?
**A.** inactive: 9.15%

**Q.** How did the inhibition turn out when CC(C)N1C(=O)CC2(CCN(CCOC(=O)C(O)(c3ccccc3)c3ccccc3)CC2)C1=O was run?
**A.** inactive: -3.66%

**Q.** How did the inhibition turn out when Cc1ccc(C(=O)NCC2(N3CCCCC3)CCCCC2)cc1 was run?
**A.** inactive: 0.44%

**Q.** With CN(C)c1ccc(C(=O)NCC2(N(C)C)CCCCC2)cc1 as the compound, how does the inhibition read?
**A.** inactive: -5.84%

**Q.** With CN(C)C1CCCC1OC(=O)C(O)(c1ccccc1)c1ccccc1 (stereo unspecified) as the compound, how does the inhibition read?
**A.** inactive: -20.3%

**Q.** Cc1ccccc1C(=O)NCC1(N2CCCCC2)CCCCC1 was tested. Which inhibition did it give?
**A.** inactive: 5.77%

**Q.** O=C(NCC1(N2CCCCC2)CCCCC1)c1cc(F)c(F)cc1Cl was tested. Which inhibition did it give?
**A.** inactive: -13.1%

**Q.** With C=CCN1CCN(CCOC(=O)C(O)(c2ccccc2)c2ccccc2)CC1 as the compound, how does the inhibition read?
**A.** inactive: -0.47%

**Q.** How did the inhibition turn out when COc1ccc(C(=O)NCC2(N(C)C)CCCCC2)cc1 was run?
**A.** inactive: 13.6%

**Q.** With O=C(NCC1(N2CCCCC2)CCCCC1)c1cccc(Br)c1 as the compound, how does the inhibition read?
**A.** inactive: -7.65%

**Q.** Which inhibition does the source give for CCN1CCCC(OC(=O)C2(O)c3ccccc3C=Cc3ccccc32)C1 (stereo unspecified) here?
**A.** inactive: -13.7%

**Q.** Which inhibition does the source give for Cc1cc(C(=O)NCC2(N3CCCCC3)CCCCC2)ccc1[N+](=O)[O-] here?
**A.** inactive: -12.3%

**Q.** CN(C)C1(CNC(=O)c2ccc(Br)cc2)CCCCC1 was tested. Which inhibition did it give?
**A.** inactive: -10.7%

**Q.** How did the inhibition turn out when COc1cc(C(=O)NCC2(N(C)C)CCCCC2)c([N+](=O)[O-])cc1OC was run?
**A.** inactive: 3.1%

**Q.** How did the inhibition turn out when COc1ccc(Cl)cc1C(=O)NCC1(N(C)C)CCCCC1 was run?
**A.** inactive: 14.1%

**Q.** Which inhibition does the source give for COc1cccc(C(=O)NCC2(N3CCCCC3)CCCCC2)c1 here?
**A.** inactive: -21.4%

**Q.** For O=C(NCC1(N2CCCCC2)CCCCC1)c1cccc(Cl)c1, which inhibition is on record?
**A.** inactive: 1.04%

**Q.** Which inhibition does the source give for O=C(OC1CN2CCC1CC2)C(CO)(c1ccccc1)c1ccccc1 (stereo unspecified) here?
**A.** inactive: -15%

**Q.** With C=C(C)C#CC(O)(C(=O)OC1CCN(C)CC1)c1ccccc1 (stereo unspecified) as the compound, how does the inhibition read?
**A.** inactive: -15.7%

**Q.** How did the inhibition turn out when COc1ccc(Br)c(C(=O)NCC2(N3CCCCC3)CCCCC2)c1 was run?
**A.** inactive: 15.3%

**Q.** How did the inhibition turn out when O=C(OCCN1CCCC1)C(O)(c1ccccc1)c1ccccc1 was run?
**A.** inactive: -11.7%

**Q.** For CC(C)Oc1ccc(C(=O)NCC2(N(C)C)CCCCC2)cc1, which inhibition is on record?
**A.** inactive: 18.2%

**Q.** CN(C)c1cccc(C(=O)NCC2(N(C)C)CCCCC2)c1 was tested. Which inhibition did it give?
**A.** inactive: -8.4%
